As a reminder, the IC50 is the concentration at which inhibition is half-maximal.

The source of these data is patent US20040146519A1 (published 2004).

Assay [1] has as its target T1, HLA-A*0101 (human).
T1 construct: also called HLA-A1
Description: inhibition of 125I probe peptide, purified HLA.

Assay [2] concerns the target T1, HLA-A*0101. Nature of the assay: inhibition of 125I probe peptide, purified HLA. The source holds these as a separate data set.
Assay [3] deals with T2, HLA-A*0202 (human).
T2 construct: purified HLA molecule
Nature of the assay: competition with 125I probe peptide for purified HLA.

In assay [4] the target is HLA-A*2402 (human). Description: inhibition of 125I probe peptide, purified HLA.
Assay [5] concerns the target T3, HLA-A*1101 (human).
T3 construct: purified HLA molecule
Description: competition with 125I probe peptide for purified HLA.

Assay [6] deals with HLA-B*5301 (human). Description: inhibition of 125I probe peptide, purified HLA.
Assay [7] concerns the target HLA-B*5401 (human). Description: inhibition of 125I probe peptide, purified HLA.
Assay [8] concerns the target HLA-B*0702 (human). Description: inhibition of 125I probe peptide, purified HLA.
Assay [9] concerns the target T4, HLA-A*6801 (human).
T4 construct: purified HLA molecule
Nature of the assay: competition with 125I probe peptide for purified HLA.

Assay [10] deals with T5, HLA-A*0301 (human).
T5 construct: purified HLA molecule
The assay is described as above.

Assay [11] addresses T6, HLA-DRB1*0701 (human).
T6 construct: also called DR7
Nature of the assay: inhibition of 125I probe peptide, purified HLA.

Like-named read-outs stand apart in the source and are kept apart here.

B1: CEA.383.D3 (peptide)
peptide: VTDNDVGPY
notes: CEA analog peptide; also called 57.001
Take B1: the IC50 in assay [1] is 4.1 nM.

B2: CEA.418.D3, 10 AA (peptide)
peptide: PTDSPSYTYY
notes: CEA analog peptide; also called 57.0104
In the case of B2, the IC50 in assay [1] and in assay [2] was 1.1 nM throughout.

B3: CEA.569L2 (peptide)
peptide: YLCGIQNSV
notes: analog of CEA.569
In the case of B3, in assay [3], the IC50 is 24 nM. This lies in the double-digit nanomolar range.

B4: CEA.10.Y2F9 (peptide)
peptide: RYCIPWQRF
notes: CEA analog peptide
Regarding B4, the IC50 in assay [4] was found to be 191 nM. That is a sub-micromolar value.

B5: CEA.101.F9 (peptide)
peptide: IYPNASLLF
notes: CEA analog peptide
For the molecule B5, half-maximal inhibition in assay [4] (IC50) required 2.2 nM. Against the preceding molecule, the IC50 is about 87-fold lower.

B6: CEA.318.F10 (peptide)
peptide: VYAEPPKPFF
notes: CEA analog peptide
B6 gave an IC50 in [4] of 27 nM.

B7: CEA.87.D3 (peptide)
peptide: QQDTPGPAY
notes: CEA analog peptide; also called 57.0004
In assay [1], B7 registered an IC50 of 56.8 nM.

B8: CEA.652.F9 (peptide)
peptide: TYACFVSNF
notes: CEA analog peptide
B8: 8.6 nM corresponded to half-maximal inhibition in [4] (IC50).

B9: CEA.656.K9 (peptide)
peptide: FVSNLATGK
notes: analog of CEA.656
In assay [5], B9 gave an IC50 of 207 nM.

B10: CEA.419.D3 (peptide)
peptide: TIDPSYTYY
notes: CEA analog peptide; also called 57.0012
In the case of B10, the IC50 in [1] and in assay [2] was 3.1 nM each time.

B11: CEA.234.F9 (peptide)
peptide: LYGPDAPTF
notes: CEA analog peptide
In the case of B11, the IC50 in assay [4] was found to be 63 nM.

B12: CEA.58.F1I10 (peptide)
peptide: FPQHLFGYSI
notes: CEA analog peptide
The molecule B12 showed an IC50 in assay [6] of 143 nM. That is a sub-micromolar value.

B13: CEA.6.F1I10 (peptide)
peptide: FPPHRWCIPI
notes: CEA analog peptide
With B13, the IC50 was 222 nM in assay [7] and 98 nM in assay [8].

B14: CEA.177Y2F9 (peptide)
peptide: LYWVNNQSF
notes: CEA analog peptide
As for B14, the half-inhibitory concentration (IC50) in assay [4] stood at 63 nM. This counts as double-digit nanomolar.

B15: CEA.687L2 (peptide)
peptide: ALVGIMIGV
notes: analog of CEA.687
Take B15: the IC50 in assay [3] is 63 nM. In other words, the double-digit nanomolar range.

B16: CEA.624.F9 (peptide)
peptide: QYSWRINGF
notes: CEA analog peptide
In assay [4], B16 displayed an IC50 of 109 nM.

B17: CEA.418.D3, 9 AA (peptide)
peptide: PTDSPSYTY
notes: CEA analog peptide; also called 57.0011
With B17, in assay [1], 37.9 nM corresponded to half-maximal inhibition (IC50).

B18: CEA.240.D3 (peptide)
peptide: PTDSPLNTSY
notes: CEA analog peptide; also called 57.0103
With B18, the IC50 in [1] and in assay [2] was 266 nM throughout.

B19: CEA.419.V2 (peptide)
peptide: TVSPSYTYYR
notes: analog of CEA.419
B19: the IC50 in assay [9] was determined as 8.6 nM.

B20: CEA.419.V2K10 (peptide)
peptide: TVSPSYTYYK
notes: analog of CEA.419
In assay [10], B20 yielded an IC50 of 69 nM.

B21: CEA.632.F1, 10 AA (peptide)
peptide: FPQQHTQVLF
notes: CEA analog peptide
As to B21, the IC50 in assay [6] is 47 nM.

B22: CEA.305 (peptide)
peptide: DTGLNRTTVTTITVY
In assay [11], B22 registered an IC50 of 2840 nM.

B23: CEA.632.F1, 8 AA (peptide)
peptide: FPQQHTQI
notes: CEA analog peptide
B23 had a 50% inhibitory concentration (IC50) in assay [7] of 185 nM.
